Activity calls are given as the source filed them. The calls are words filed in the database; no cut-off is given here.
Legend:
[1] = biological target: T1, Son of sevenless homolog 1 (Homo sapiens, UniProt Q07889); experiment: Binding affinity to human recombinant N-terminal His6-tagged SOS1 (564 to 1049 residues) expressed in BL21-RIL Escherichia coli by fluorescent probe S2 based fluorescence polarization anisotrophy saturation binding assay
T1 sequence (Q07889 whole entry): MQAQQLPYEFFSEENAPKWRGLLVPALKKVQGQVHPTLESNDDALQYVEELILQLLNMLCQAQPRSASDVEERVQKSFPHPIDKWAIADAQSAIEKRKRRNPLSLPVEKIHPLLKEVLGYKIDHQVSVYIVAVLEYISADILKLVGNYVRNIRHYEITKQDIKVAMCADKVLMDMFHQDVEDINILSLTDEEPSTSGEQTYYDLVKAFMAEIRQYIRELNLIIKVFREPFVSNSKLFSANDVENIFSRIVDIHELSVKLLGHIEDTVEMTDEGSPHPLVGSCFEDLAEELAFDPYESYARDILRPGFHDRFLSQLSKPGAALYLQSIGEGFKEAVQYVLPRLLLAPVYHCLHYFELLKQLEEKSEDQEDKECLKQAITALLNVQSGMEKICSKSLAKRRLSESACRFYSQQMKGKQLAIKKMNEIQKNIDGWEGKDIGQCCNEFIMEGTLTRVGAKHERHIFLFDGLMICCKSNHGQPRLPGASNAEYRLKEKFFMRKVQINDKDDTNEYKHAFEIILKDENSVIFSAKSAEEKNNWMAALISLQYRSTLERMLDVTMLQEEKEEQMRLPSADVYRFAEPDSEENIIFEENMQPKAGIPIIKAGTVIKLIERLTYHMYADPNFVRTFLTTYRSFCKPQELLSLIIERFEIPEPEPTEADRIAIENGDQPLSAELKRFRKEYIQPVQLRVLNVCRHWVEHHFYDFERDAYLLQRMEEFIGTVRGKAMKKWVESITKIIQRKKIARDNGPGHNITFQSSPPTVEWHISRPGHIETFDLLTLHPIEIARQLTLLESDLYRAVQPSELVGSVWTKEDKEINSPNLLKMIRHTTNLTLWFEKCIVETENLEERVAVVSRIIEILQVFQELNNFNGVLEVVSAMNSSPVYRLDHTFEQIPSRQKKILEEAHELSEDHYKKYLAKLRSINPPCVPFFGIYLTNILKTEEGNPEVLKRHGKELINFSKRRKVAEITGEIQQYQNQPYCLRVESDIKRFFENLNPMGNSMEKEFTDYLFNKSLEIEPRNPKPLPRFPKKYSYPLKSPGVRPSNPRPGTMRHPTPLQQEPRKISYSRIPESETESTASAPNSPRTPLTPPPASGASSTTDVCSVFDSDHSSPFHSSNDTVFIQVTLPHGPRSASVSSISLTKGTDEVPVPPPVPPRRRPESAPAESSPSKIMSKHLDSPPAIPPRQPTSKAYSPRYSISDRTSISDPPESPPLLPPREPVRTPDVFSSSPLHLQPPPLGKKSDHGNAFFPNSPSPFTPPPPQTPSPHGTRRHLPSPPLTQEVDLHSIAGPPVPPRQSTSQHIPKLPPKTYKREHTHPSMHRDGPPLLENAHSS

[2] = biological target: T1, Son of sevenless homolog 1; experiment: Activation of SOS1 in human HeLa cells expressing wild type KRAS assessed as induction of ERK1/2 T202/Y204 phosphorylation incubated for 30 mins by In-cell Western assay; format: cell-based
[3] = biological target: Son of sevenless homolog 1 (Homo sapiens, UniProt Q07889); experiment: Activation of SOS1 in human NCI-H727 cells expressing KRAS G12V mutant assessed as induction of ERK1/2 T202/Y204 phosphorylation incubated for 30 mins by In-cell Western assay; format: cell-based
[4] = biological target: T2, Son of sevenless homolog 1 (Homo sapiens) (UniProt Q07889); experiment: Biphasic activity at of SOS1 in human HeLa cells expressing wild type KRAS assessed as induction of ERK1/2 T202/Y204 phosphorylation at 1.5 to 100 uM (lower range) incubated for 30 mins by In-cell Western assay; format: cell-based
T2 sequence (whole entry): T1 sequence (Q07889 whole entry)

[5] = biological target: T2, Son of sevenless homolog 1 (Homo sapiens); experiment: Biphasic activity at of SOS1 in human HeLa cells expressing wild type KRAS assessed as reduction in ERK1/2 T202/Y204 phosphorylation at 1.5 to 100 uM (higher range) incubated for 30 mins by In-cell Western assay; format: cell-based
[6] = biological target: T2, Son of sevenless homolog 1 (Homo sapiens); experiment: Activation of SOS1 in human NCI-H727 cells expressing KRAS G12V mutant assessed as induction of ERK1/2 T202/Y204 phosphorylation at 1.5 to 100 uM (lower range) incubated for 30 mins by In-cell Western assay; format: cell-based
[7] = biological target: T2, Son of sevenless homolog 1 (Homo sapiens); experiment: Activation of SOS1 in human NCI-H727 cells expressing KRAS G12V mutant assessed as induction of ERK1/2 T202/Y204 phosphorylation at 1.5 to 100 uM (higher range) incubated for 30 mins by In-cell Western assay; format: cell-based

Cc1cc(Cn2c(N3CCNCC3)nc3c(-c4c(C)n[nH]c4C)cc(Cl)cc32)cc(C)c1F
Kd [1]: < 0.1 µM | EC50 [2]: 9 µM | EC50 [3]: 15.6 µM | Activity [4]: Active | Activity [5]: Active | Activity [6]: Active | Activity [7]: Active
